Experimental data published in patent US20130164347A1, “MULTILAYER POLYMERIC DRUG DELIVERY SYSTEM” (priority 2011, published 2013).

Test: In-vitro release of 5-FU from partially encapsulated multilayer polymeric films
Conditions: 2.5 mm disks die-cut from the carrier layer alone (mono layer)

O=c1[nH]cc(F)c(=O)[nH]1 [5-FU, 5-Fluoro-Uracil]
release profile of 5-FU: burst only
